Reference: US20110144317A1, “MUTANTS OF GLYCOSIDE HYDROLASES AND USES THEREOF FOR SYNTHESIZING COMPLEX OLIGOSACCHARIDES AND DISACCHARIDE INTERMEDIATES” (priority 2008, published 2011)

Columns and labels:
[1] = Screening of AS single mutant library for glucosylation of α-L-Rhap-OMe (HPLC); type: biochemical; settings: desired product α-D-Glcp-(1→3)-α-L-Rhap-OMe; sucrose and acceptor each 73 mM, 30° C., 24 h, microtiter format
Procedure: The protocol was established to enable the rapid identification of clones able to glucosylate α-L-Rhap-OMe (formula II). To obtain higher amounts of enzymes and facilitate detection of glucosylated compounds upon HPLC screening, mutants were produced in 96-DeepWell Format plates. Storage microplates containing monomutants were thawed and replicated to inoculate a starter culture in 96-well microplates containing, in each well, 150 μL LB medium supplemented with ampicillin (100 μg/mL). After growth for 24 h at 30° C. under agitation (200 rpm), plates were duplicated into 96-Deep Well plates containing, in each well, 1.1 mL LB medium supplemented with ampicillin (100 μg/mL) and IPTG (1 mM) to induce GST-AS expression. Cultures were then grown for 24 h at 30° C. under agitation (200 rpm). […]
Efficiency of the glucosylation reaction was evaluated by HPLC analysis of the acceptor reaction product synthesized when using α-L-Rhap-OMe as acceptor using a Dionex P 680 series pump, a Shodex RI 101 series refractometer, a Dionex UVD 340 UV/Vis detector and an autosampler HTC PAL. […]
For each of the 7 selected positions, 19 single mutants were generated (corresponding to each possible amino acid change). […] Both sucrose consumption and disaccharide formation were determined in order to calculate the glucosylation rate defined as the molar ratio of monoglucosylated acceptor versus/sucrose consumed.

[2] = Comparison of products synthesized by wild type and AS variant I228Y (HPAEC/HPLC); type: biochemical; settings: sole presence of sucrose, 146 mM, FIG. 7B
Procedure: All assays were performed at 30° C. in 50 mM Tris buffer, pH=7.0. For the acceptor reactions, I228Y and wild type AS were tested on α-L-Rhap-OMe (formula II) used as acceptor.
Comparison of products synthesized by wild type and AS variant. Reactions were performed in the presence of 146 mM sucrose alone or supplemented with 146 mM acceptor. The purified wild-type or mutated GST/AS were employed at 0.5 U/mL. The reactions were stopped by heating at 95° C. for […]. The final mixture was centrifuged at 18 000 g for 5 min. Different carbohydrate analyses were performed to compare the product profiles synthesized by ASNPwt and AS variant (I228Y):
Soluble and insoluble oligosaccharides produced during the reaction were identified by HPAEC using a Dionex Carbo-Pack PA100 column at 30° C. Before analysis, the insoluble fraction was solubilised in KOH at a final total sugar concentration of 10 g/kg. Mobile phase (150 mM NaOH) was set at 1 mL/min flow rate with a sodium acetate gradient (going from 6 to 500 mM within 120 min). Detection was performed using a Dionex ED40 module with a gold working electrode and an Ag/AgCl pH reference. Note that α-L-Rhap-OMe (acceptor) and its derivatives are not oxidable products and thus are not detectable by HPAEC. Sucrose, glucose, fructose, α-L-Rhap-OMe (acceptor) and its derivatives (glucosylation products) were quantified by HPLC, as previously described.

B1: I228Y: 1G5A (N. polysaccharea amylosucrase, SEQ ID NO: 13) single mutant, isoleucine 228 replaced by tyrosine (protein, listed as Neisseria polysaccharea)
chain: SPNSQYLKTRILDIYTPEQRAGIEKSEDWRQFSRRMDTHFPKLMNELDSVYGNNEALLPMLEMLLAQAWQSYSQRNSSLKDIDIARENNPDWILSNKQVGGVCYVDLFAGDLKGLKDKIPYFQELGLTYLHLMPLFKCPEGKSDGGYAVSSYRDVNPALGTIGDLREVIAALHEAGISAVVDFIFNHTSNEHEWAQRCAAGDPLFDNFYYIFPDRRMPDQYDRTLREYFPDQHPGGFSQLEDGRWVWTTFNSFQWDLNYSNPWVFRAMAGEMLFLANLGVDILRMDAVAFIWKQMGTSCENLPQAHALIRAFNAVMRIAAPAVFFKSEAIVHPDQVVQYIGQDECQIGYNPLQMALLWNTLATREVNLLHQALTYRHNLPEHTAWVNYVRSHDDIGWTFADEDAAYLGISGYDHRQFLNRFFVNRFDGSFARGVPFQYNPSTGDCRVSGTAAALVGLAQDDPHAVDRIKLLYSIALSTGGLPLIYLGDEVGTLNDDDWSQDSNKSDDSRWAHRPRYNEALYAQRNDPSTAAGQIYQDLRHMIAVRQSNPRFDGGRLVTFNTNNKHIIGYIRNNALLAFGNFSEYPQTVTAHTLQAMPFKAHDLIGGKTVSLNQDLTLQPYQVMWLEIA
[1]
  glucosylation rate (molar ratio of monoglucosylated acceptor versus sucrose consumed): 23%
[2]
  ability to elongate maltooligosaccharide chains and to synthesize insoluble polymers: lost its ability
